Laboratory results taken from ChEMBL document CHEMBL1914316, “Conversion of systemically-distributed triazole-based stearoyl-CoA desaturase (SCD) uHTS hits into liver-targeted SCD inhibitors” (Bioorg Med Chem Lett, 2011).

Tested on: Mus musculus
Assay: Ratio of drug uptake in liver to harderian glands of C57BL/6 mouse at 10 mg/kg, po after 6 hrs
Settings: in vivo

Ratio | Structure (SMILES)
> 94 | O=C(O)Cn1nnc(-c2cncc(-c3cn(Cc4cc(Br)c(Br)c(Br)c4)nn3)c2)n1
> 66 | O=C(O)Cn1nnc(-c2cnc(-c3cn(Cc4cc(Cl)c(Cl)c(Cl)c4)nn3)s2)n1
